Data published in article PMC10474047.

How the values were obtained:
[1] = target: NTRK3-202-3XFLAG (inactive short variant of NTRK3 without the tyrosine kinase domain) (mouse); test: co-IP; WT αT3-1 cells co-transfected with c-Src-eGFP and NTRK3-3XFLAG isoforms for 24 h; modified RIPA lysis buffer (150 mM NaCl, 50 mM Tris pH 8, 1% Triton X-100, phosphatase and protease inhibitors); extracts incubated overnight with anti-FLAG M2 antibody, then Dynabeads Protein G 4 h; blot for pY^416 c-Src (legend: total c-Src too); bands quantified with ImageJ
[2] = target: NTRK3-205-3XFLAG (NTRK3 isoform with an additional exon in the tyrosine kinase domain) (mouse); test: as above

c-Src-eGFP (WT c-Src fused in frame with GFP) (from UniProt P05480-2 1-535) (enzyme)
fold reduction of co-precipitated pY416 c-Src against NTRK3-201 [1]: 2.5 fold | fold reduction of co-precipitated pY416 c-Src against NTRK3-201 [2]: 2.5 fold
